Shown are actives, neighbours in structure and some others; about 13% of the full set was active somewhere.
Sfp PPTase inh = qHTS Assay for Inhibitors of Bacillus subtilis Sfp phosphopantetheinyl transferase (PPTase). 310,000 compounds, 3.5% hits. 4'-phosphopantetheinyl transferase ffp (Bacillus subtilis), Q9F4F7. Biochemical Sfp PPTase activity, qHTS. Potency, µM, inactives show max response, negative = inhibition, usual class: inhibitors; active = well fitted inhibition curve with a large enough effect; inconclusive = small, poorly fitted or top-dose-only effect, or another doubt; inactive = no such curve, though single readings can be large or run the other way;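 note: the enzyme is Sfp with the accession as filed and its product quenches rhodamine fluorescence; potency is the fitted concentration of half-maximal effect; 0% = enzyme reaction without inhibitor and -100% = no enzyme wells; top concentration of the series not given in the record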
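Fluorescence-quenching assay with 15 nM Sfp, 5 uM rhodamine-CoA and 12.5 uM BHQ-2-labelled ybbR peptide in pH 7.6 Hepes/MgCl2 buffer. Enzyme was pre-incubated with compound for 15 min at room temperature. Rate was taken from the 30-min fluorescence change (525/598 nm).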
G9a inh = G9a (human) methyltransferase inhibition | G9a H3K9 monomethylation, AlphaScreen, 2 h | AID 504332 | Q96KQ7 | Potency, µM (doses to about 102 µM), for the others: at the top dose activity, negative = inhibition, hits mostly inhibitors | 350,000 compounds, 8.8% hits; further: potency means the concentration at half of the fitted maximal effect; on the % scale 0 is the no-effect control and ±100 the full control effect; nearly all actives have a fitted effect of over 75% in size
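AlphaScreen detection with an anti-monomethyl H3K9 antibody quantified product after a 2 h room-temperature reaction containing 500 nM biotinylated H3K9 peptide, 20 µM SAM and 20 nM enzyme, which had been preincubated 15 min with compound.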
ALDH1A1 inh = blocks purified human ALDH1A1 activity; 220,000 compounds, 7.3% hits; Purified ALDH1A1, NADH fluorescence, propionaldehyde substrate; Potency, µM (titrated, usually from 75.3 µM), inactives show at the top dose activity, negative = inhibition, hits mostly inhibitors; P00352; AID 1030; active means well fitted inhibition curve with a large enough effect, not every such curve was filed as active; inconclusive means small, poorly fitted or top-dose-only effect, or another doubt; inactive means no such curve, though single readings can be large or run the other way;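 further: potency means the concentration at half of the fitted maximal effect; plate controls were no enzyme wells and a reference inhibitor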
JMJD2E inh = inhibitors of human JMJD2E histone demethylase; B2RXH2; JMJD2E catalytic domain, FDH-coupled NADH fluorescence (FDH is formaldehyde dehydrogenase); Potency, µM (series often up to 57.1 µM), for the others: top-dose activity change, negative = inhibition, hits mostly inhibitors; 230,000 compounds, 1.6% hits; AID 2147; active means well fitted inhibition curve with a large enough effect, not every such curve was filed as active; inconclusive means small, poorly fitted or top-dose-only effect, or another doubt; inactive means no such curve, though single readings can be large or run the other way;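 further: potency means the concentration at half of the fitted maximal effect; 0% = wells with enzyme and -100% = buffer wells without enzyme; nearly all actives have a fitted effect of over 50% in size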
LMNA splice mod = modulators of lamin A splicing; HeLa LMNA splicing GFP/RFP minigene ratio, 48 h; Potency, µM (series often up to 46.1 µM), for the others: top-dose ratio change, negative = inhibition, actives largely listed as inhibitors; 200,000 compounds, 0.01% hits; AID 1487; active means well fitted inhibition curve with a large enough effect in the signal ratio, with a control signal flat, not every such curve was filed as active; inconclusive means small, poorly fitted or top-dose-only effect, or effect the other way, or a change in a side signal; the % refers to the signal ratio; further: potency means the concentration at half of the fitted maximal effect; on the % scale 0 is the no-effect control and ±100 the full control effect
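Read-out is the ratio of GFP to DsRed2 object intensity, acquired by 488 nm laser-scanning cytometry on HeLa lamin A-EGFP minigene reporter cells. Compound incubation 48 hrs at 37 °C in Opti-MEM with 2% FBS; DMSO 0.5% final.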
miR-21 reporter = raises the signal of a miR-21 reporter | HeLa miR-21 FLuc reporter, luciferase, 48 h | Potency, µM (highest dose often 38.3 µM), for inactives: at the highest dose reporter change, positive = more light | 340,000 tested, under 10 active | AID 2288; active = well fitted rising curve with a large enough effect; inconclusive = small, poorly fitted or top-dose-only effect; inactive = no such curve, though single readings can be large or run the other way;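 also: % of control where 0% means no effect; miR-21 action dims this reporter so a rising signal means less miR-21 action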
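HeLa cells endogenously expressing miR-21, stably carrying CMV-driven firefly luciferase with a downstream miR-21 binding site, 2000 cells/well. Titrations up to approximately 40 uM, 48 hours; luciferase luminescence read.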
* hit, by the source's call; ? = inconclusive; nt = not tested or not shown; [ ] = remark or other dose. Unless noted, the call rests on the fitted dose curve; in most records, active means well fitted curve in the direction sought with a large enough effect; inconclusive means small, poorly fitted or top-dose-only effect, or another doubt; inactive means no such curve, though single readings can be large; an effect the other way counts as inactive or inconclusive.

| no. | SMILES | G9a inh | Sfp PPTase inh | ALDH1A1 inh | LMNA splice mod | miR-21 reporter | JMJD2E inh |
| --- | --- | --- | --- | --- | --- | --- | --- |
| 1 | COc1ccc(Nc2c3c(nc4ccc(NC(=O)/C=C/c5cccc(OC)c5OC)cc24)CCCC3)cc1OC | 11.2µM* | nt | nt | nt | ? | nt |
| 2 | COc1ccccc1Nc1c2c(nc3ccc(NC(=O)/C=C/c4cccc(OC)c4OC)cc13)CCCC2 | 11.2µM* | nt | nt | nt | 3.8% | nt |
| 3 | COc1ccc(Nc2c3c(nc4ccccc24)CCCC3)cc1OC | -8.7%[59 µM] | -10.4% | 2.0% | nt | 9.9% | 8.5% |
| 4 | O=C(NC(O)C(=O)c1ccc(F)cc1)c1ccc(F)cc1 (stereo not given) | nt | -0.9% | nt | nt | 0.5% | nt |
| 5 | CCOC(=O)c1cccc(NC(=O)CCn2nc(C)c3c(C)n(-c4ccccc4)nc3c2=O)c1 | -4.9%[59 µM] | nt | nt | nt | -4.9% | nt |
| 6 | Cc1cccc(N(C)C(=O)Cc2c(C(=O)O)[nH]c3ccccc23)c1 | 0.5%[59 µM] | nt | nt | nt | 9.9% | nt |
| 7 | Cc1ccc2cccc(OCC(=O)Nc3ccc4c(c3)OCO4)c2n1 | -28.5% | 4.4% | -5.2% | ? | -0.7% | 3.1% |
| 8 | Cc1ccc2cccc(OC(=O)c3ccc4c(c3)OCCO4)c2n1 | 8.91µM* | -26.7% | -13.5% | 2.3% | -9.4% | 0.3% |
| 9 | COc1cc(CN2CCC(C(=O)NC3CCCC3)CC2)cc(Br)c1O | 10µM* | -26.9% | ? | -0.4% | -3.7% | ? |
| 10 | COc1cc(CN2CCC(C(=O)N3CCC(C)CC3)CC2)cc(Br)c1O | 10µM* | -16.4% | ? | -0.9% | 2.6% | ? |
| 11 | Cc1cc2[nH]c(=O)c(=O)[nH]c2cc1S(=O)(=O)Nc1ccc(OC(F)(F)F)cc1 | -2.7%[59 µM] | nt | nt | -5.8%[46 µM] | -6.7% | nt |
| 12 | N[C@H](Cc1cc(I)c(Oc2cc(I)c(O)c(I)c2)c(I)c1)C(=O)O | -30.0%[21.5 µM] | -12.3% | -6.9%[20.9 µM] | ? | nt | -2.7%[25.5 µM] |
| 13 | Cc1cccc(C)c1-n1cccc1/C=C1/C(=N)N2C(=NC1=O)SN=C2S(C)(=O)=O | 31.6µM* | 4.2% | ? | 2.7%[46 µM] | -12.6% | -11.3% |
| 14 | CC1=CSC2=NC(=O)/C(=C\c3cccn3-c3ccccc3)C(=N)N12 | 2.0%[59 µM] | 10µM* | 22.4µM* | -13.8% | 6.7% | 4.5% |
| 15 | CC(C)c1ccc(-n2cccc2/C=C2/C(=N)N3C=CSC3=NC2=O)cc1 | 7.3% | -12.8% | 11.5% | ? | -1.8% | 361.2% |
| 16 | Cc1ccc(-n2cccc2/C=C2/C(=N)N3C(=NC2=O)SN=C3S(C)(=O)=O)cc1Cl | 50.1µM* | 89.1µM* | 17.8µM* | -2.8% | -10.3% | 22.4µM* |
| 17 | CCc1ccc(NC(=O)CSc2nc3ccccc3nc2N2CCCC2)cc1 | 102.1% | 17.8% | nt | nt | -7.1% | nt |
| 18 | O=C(C/C=N/OCc1ccccc1F)c1cnc(-c2ccc(Cl)cc2)s1 | 76.4%[59 µM] | 22.1% | 22.4µM* | -7.2% | -8.7% | -21.8% |
| 19 | Cc1ccc(/C=C2/NC(=O)N(Cc3ccccc3)C2=O)o1 | ? | ? | 3.55µM* | 4.1% | 6.9% | 11.2µM* |
| 20 | COC(=O)CN1C(=O)N/C(=C/c2ccc(C)o2)C1=O | 25.1µM* | 22.4µM* | 17.8µM* | nt | 0.3% | ? |
| 21 | COC(=O)COc1ccc(/C=C2/NC(=O)N(CC(=O)OC)C2=O)cc1 | -22.4% | 14.2% | ? | nt | 0.6% | -19.7% |
| 22 | CCOC(=O)c1sc2nc(SCC#N)n(CCCN3CCCC3=O)c(=O)c2c1C | 8.0%[12.7 µM] | 0.5% | 0.794µM* | -21.9% | 22.1% | -0.7% |
| 23 | CCOC(=O)c1sc2nc3n(c(=O)c2c1C)CCC3 | -9.3%[59 µM] | -4.6% | -10.6% | 4.6% | -18.7% | ? |
| 24 | NCCNC(=S)S | nt | nt | 3.16µM* | nt | nt | nt |
| 25 | Cc1cccc(Oc2nc3ccccn3c(=O)c2/C=C(\C#N)c2nc3ccccc3s2)c1C | 5.62µM* | nt | nt | nt | -3.8% | nt |
| 26 | C/C(N=NC(=[SH+])SCc1ccccc1)=C1\C=CC=CN1.[Cl][Cu] | nt | nt | 2.51µM* | nt | nt | nt |
| 27 | CC(C)N=C(NC#N)SCc1ccccc1 | ? | 23.7% | -2.4% | 2.1% | -11.1% | 0.7% |
| 28 | CN(C)CCCN1c2ccccc2C(C)(C)c2ccccc21 | ? | 0.7% | -7.6%[13.5 µM] | -12.1% | nt | nt |
| 29 | O=C(O)CCCNC(=O)OCc1ccccc1 | 24.2%[2.33 µM] | 15.3% | 8.2% | -12.0% | 4.5% | -5.1% |
| 30 | COC(=O)C(CCCCNC(=O)OCc1ccccc1)NC(=O)CN (stereo not given) | -28.3%[12.7 µM] | 10.7% | 28.2µM* | 0.4% | -4.7% | 2.3% |

Five structures from above, sorted by molar mass, low to high:
| no. | SMILES | G9a inh | Sfp PPTase inh | ALDH1A1 inh | LMNA splice mod | miR-21 reporter | JMJD2E inh |
| --- | --- | --- | --- | --- | --- | --- | --- |
| 20 | COC(=O)CN1C(=O)N/C(=C/c2ccc(C)o2)C1=O | 25.1µM* | 22.4µM* | 17.8µM* | nt | 0.3% | ? |
| 19 | Cc1ccc(/C=C2/NC(=O)N(Cc3ccccc3)C2=O)o1 | ? | ? | 3.55µM* | 4.1% | 6.9% | 11.2µM* |
| 3 | COc1ccc(Nc2c3c(nc4ccccc24)CCCC3)cc1OC | -8.7%[59 µM] | -10.4% | 2.0% | nt | 9.9% | 8.5% |
| 9 | COc1cc(CN2CCC(C(=O)NC3CCCC3)CC2)cc(Br)c1O | 10µM* | -26.9% | ? | -0.4% | -3.7% | ? |
| 22 | CCOC(=O)c1sc2nc(SCC#N)n(CCCN3CCCC3=O)c(=O)c2c1C | 8.0%[12.7 µM] | 0.5% | 0.794µM* | -21.9% | 22.1% | -0.7% |
